Biological target: 5-hydroxytryptamine receptor 1A (Homo sapiens, UniProt P08908)
Experiment: Displacement of [3H]8-OH-DPAT from 5HT1A receptor by vacuum filtration

Chains of the proteins cited; added tags and fusions are not shown.
UniProt P08908, whole entry: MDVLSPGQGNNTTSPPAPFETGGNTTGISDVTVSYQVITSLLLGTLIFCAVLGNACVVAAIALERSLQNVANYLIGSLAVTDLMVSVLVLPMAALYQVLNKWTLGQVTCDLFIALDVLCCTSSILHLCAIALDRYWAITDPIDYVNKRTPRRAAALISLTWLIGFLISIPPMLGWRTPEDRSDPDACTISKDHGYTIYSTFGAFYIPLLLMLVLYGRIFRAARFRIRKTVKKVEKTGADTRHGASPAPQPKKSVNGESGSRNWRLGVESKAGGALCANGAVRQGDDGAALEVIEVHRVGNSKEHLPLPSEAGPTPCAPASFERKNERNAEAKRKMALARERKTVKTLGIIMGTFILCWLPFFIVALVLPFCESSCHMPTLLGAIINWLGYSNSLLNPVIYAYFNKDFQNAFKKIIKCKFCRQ

COc1ccc2[nH]cc(CCN(C)C)c2c1 [MEBUFOTENIN]
Ki: 28 nM

Reference: ChEMBL document CHEMBL1158318, “Two 5-HT 1A Receptor-Interactive Tryptamine Derivatives from the Unripe Fruit of Evodia rutaecarpa” (J Nat Prod, 1997)
